Experimental data reported in publication PMC8386747, “Structure–activity relationship, in vitro and in vivo evaluation of novel dienyl sulphonyl fluorides as selective BuChE inhibitors for the treatment of Alzheimer's disease” (Journal of Enzyme Inhibition and Medicinal Chemistry, 2021).

Chains of the proteins cited; added tags and fusions are not shown. Residues count along the entry.
UniProt P06276, 29-602: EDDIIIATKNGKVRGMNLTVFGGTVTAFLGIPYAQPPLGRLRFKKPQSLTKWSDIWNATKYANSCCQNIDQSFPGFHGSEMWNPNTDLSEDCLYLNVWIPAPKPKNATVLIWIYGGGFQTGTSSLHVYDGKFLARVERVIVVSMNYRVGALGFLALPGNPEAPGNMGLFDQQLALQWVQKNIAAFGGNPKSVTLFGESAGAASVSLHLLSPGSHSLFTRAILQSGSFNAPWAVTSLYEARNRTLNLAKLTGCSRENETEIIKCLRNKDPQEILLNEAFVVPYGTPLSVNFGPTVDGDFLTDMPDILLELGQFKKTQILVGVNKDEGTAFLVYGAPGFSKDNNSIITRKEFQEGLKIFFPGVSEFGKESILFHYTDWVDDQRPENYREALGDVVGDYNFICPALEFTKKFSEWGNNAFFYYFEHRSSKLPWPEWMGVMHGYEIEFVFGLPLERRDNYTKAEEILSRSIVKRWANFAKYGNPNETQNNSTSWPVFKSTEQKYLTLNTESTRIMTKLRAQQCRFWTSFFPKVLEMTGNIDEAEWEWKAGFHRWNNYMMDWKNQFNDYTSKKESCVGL
UniProt O42275, 24-633: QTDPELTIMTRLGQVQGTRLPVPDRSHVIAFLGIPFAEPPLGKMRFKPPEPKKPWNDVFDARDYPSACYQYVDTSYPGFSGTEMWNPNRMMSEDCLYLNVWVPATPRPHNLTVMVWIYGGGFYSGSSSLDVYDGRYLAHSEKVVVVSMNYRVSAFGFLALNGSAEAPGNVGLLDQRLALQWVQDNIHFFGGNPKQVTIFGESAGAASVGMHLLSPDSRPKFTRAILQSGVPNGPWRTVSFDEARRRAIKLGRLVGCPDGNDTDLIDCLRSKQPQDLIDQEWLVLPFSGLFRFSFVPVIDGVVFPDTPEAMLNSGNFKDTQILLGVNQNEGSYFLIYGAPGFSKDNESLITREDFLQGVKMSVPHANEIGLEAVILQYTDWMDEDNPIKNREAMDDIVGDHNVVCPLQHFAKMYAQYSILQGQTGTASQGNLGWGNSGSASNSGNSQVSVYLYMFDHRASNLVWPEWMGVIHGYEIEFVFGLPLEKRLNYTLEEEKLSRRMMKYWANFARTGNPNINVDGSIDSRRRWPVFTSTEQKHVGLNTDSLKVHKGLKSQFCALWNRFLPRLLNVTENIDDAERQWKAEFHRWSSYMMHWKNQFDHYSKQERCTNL

Tests used:
[1] = biological target: T1, BuChE from human serum (hBuChE) (Homo sapiens, UniProt P06276); assay: hBuChE inhibition assay (Ellman's assay); format: biochemical; conditions: mean ± SEM
T1 construct: BuChE from human serum (hBuChE); purchased Sigma B4186; host or cells: human serum

AChE from electric eel = biological target: T2, AChE from electric eel (Electrophorus electricus, UniProt O42275); assay: EeAChE inhibition assay (Ellman's method); format: biochemical; conditions: na = no inhibitory activity at 20 µM
T2 construct: assays were performed on AChE from electric eel (C3389-500UN; Sigma); purchased Sigma C3389-500UN

SMILES	IC50 [1]	AChE % inhibition at 20 µM (AChE from electric eel)
CCN(C)C(=O)Oc1cccc([C@H](C)N(C)C)c1 [Rivastigmine, rivastigmine, reference compound]	2950 ± 460 nM	
Cc1ccc(/C=C/C=C(\Cl)S(=O)(=O)F)cc1 [Compound B3]		20.6 ± 0.8%
